These results are taken from US20060154990A1, “Use of MEK inhibitors in treating abnormal cell growth” (AGOURON PHARMACEUTICALS, INC., priority 2004, published 2006).

This series in a line: Plasma pharmacokinetics after multiple oral doses in advanced cancer patients. To be noted: fasting, 1 mg QD or BID - 30 mg BID.

Turning to `O=C(NOC[C@H](O)CO)c1ccc(F)c(F)c1Nc1ccc(I)cc1F` [Compound 1, N-[(R)-2,3-dihydroxy-propoxy]-3,4-difluoro-2-(2-fluoro-4-iodo-phenylamino)-benzamide], the “dose proportionality of Cmax and AUC” value is reported as “roughly dose proportional”.
